Our source for the normalised thallium flux (F/F0 slope) values is PubChem BioAssay AID1713 (Vanderbilt High Throughput Screening Facility, 2009).

The chains behind the UniProt entries cited, without tags or fusion partners. Where a name states a change or a piece, a line headed by the entry shows the natural chain unless it says otherwise.
UniProt Q9H2X9: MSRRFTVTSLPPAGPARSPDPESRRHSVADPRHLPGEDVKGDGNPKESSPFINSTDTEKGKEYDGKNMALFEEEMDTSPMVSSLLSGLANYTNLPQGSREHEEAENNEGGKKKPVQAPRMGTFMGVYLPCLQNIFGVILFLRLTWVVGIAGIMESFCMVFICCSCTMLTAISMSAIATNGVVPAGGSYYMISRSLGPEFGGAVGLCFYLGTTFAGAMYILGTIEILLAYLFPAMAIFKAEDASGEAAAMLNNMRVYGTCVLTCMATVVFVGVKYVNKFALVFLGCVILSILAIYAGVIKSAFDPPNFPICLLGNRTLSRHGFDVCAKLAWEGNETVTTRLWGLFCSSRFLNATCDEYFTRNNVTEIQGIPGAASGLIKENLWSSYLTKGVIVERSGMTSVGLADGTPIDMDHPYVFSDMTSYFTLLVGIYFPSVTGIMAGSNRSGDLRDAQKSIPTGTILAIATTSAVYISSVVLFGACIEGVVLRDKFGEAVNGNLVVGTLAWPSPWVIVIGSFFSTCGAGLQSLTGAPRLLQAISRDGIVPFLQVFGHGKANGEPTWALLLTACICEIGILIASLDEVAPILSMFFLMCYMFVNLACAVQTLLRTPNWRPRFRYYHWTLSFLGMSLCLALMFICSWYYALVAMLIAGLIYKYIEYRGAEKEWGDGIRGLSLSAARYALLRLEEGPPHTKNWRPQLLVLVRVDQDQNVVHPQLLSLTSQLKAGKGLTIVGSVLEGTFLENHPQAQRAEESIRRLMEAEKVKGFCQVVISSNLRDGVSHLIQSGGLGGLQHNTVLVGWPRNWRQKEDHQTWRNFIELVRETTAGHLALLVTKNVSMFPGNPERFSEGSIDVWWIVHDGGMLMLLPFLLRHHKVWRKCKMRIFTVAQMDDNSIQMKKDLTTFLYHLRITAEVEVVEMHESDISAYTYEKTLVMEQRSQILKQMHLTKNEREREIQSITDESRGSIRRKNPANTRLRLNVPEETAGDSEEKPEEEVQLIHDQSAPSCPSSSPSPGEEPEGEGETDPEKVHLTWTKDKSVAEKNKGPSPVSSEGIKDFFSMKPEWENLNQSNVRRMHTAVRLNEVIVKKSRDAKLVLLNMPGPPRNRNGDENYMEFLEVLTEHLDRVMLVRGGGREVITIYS

The list shows a part of the results, in another mix than the full data. Results filed as inconclusive are left out. Calls of active or inactive are those of the source.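 Rule for the calls: active = thallium flux slope above the same plate's solvent-only control mean plus 3 SD; inconclusive = the two replicate wells disagree; inactive = no significant difference from solvent-only control wells.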

This test deals with Solute carrier family 12 member 5 (Homo sapiens) (UniProt Q9H2X9). The test is described as follows: retest of KCC2 transport modulators without sodium – cell-based, HEK293 KCC2, thallium flux, secondary assay, confirmation (AID 1713). The following applies: FluoZin2 fluorescence, at 10 µM, stronger effect = higher value. An outline of the steps:
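measured by = kinetic FluoZin2 fluorescence at 1 Hz, ex 480/em 540 nm | material = KCC2-expressing HEK cells | read-out = F/F0 slope over 10–20 s post-thallium, baseline-normalized | repeats = two replicates | schedule = 48 min dye loading | buffer or medium = Sodium-free N-methylglucamine chloride buffer | also added = thallium sulfate stimulus buffer at pH 7.3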
For the compound `O=c1c2cc([N+](=O)[O-])ccc2[nH]c2c([N+](=O)[O-])cc([N+](=O)[O-])cc12`, the normalised thallium flux (F/F0 slope) was inactive: 0.00709.

Turning to `O=P(Nc1nc2ccc(Cl)cc2s1)(c1ccccc1)c1ccccc1`, the normalised thallium flux (F/F0 slope) was inactive: 0.0175. To `C[N+]1=C2C=CC=CC=C2SC12C([N+](=O)[O-])=CC([N+](=O)[O-])=C[C-]2[N+](=O)[O-]` (stereo not drawn) belongs inactive: 0.00648.
